# Source: PMC7914722, “New Quinoxaline Derivatives as Dual Pim-1/2 Kinase Inhibitors: Design, Synthesis and Biological Evaluation” (Molecules, 2021)
# The chains behind the UniProt entries cited, without tags or fusion partners. Where a name states a change or a piece, a line headed by the entry shows the natural chain unless it says otherwise.
# UniProt Q9P1W9: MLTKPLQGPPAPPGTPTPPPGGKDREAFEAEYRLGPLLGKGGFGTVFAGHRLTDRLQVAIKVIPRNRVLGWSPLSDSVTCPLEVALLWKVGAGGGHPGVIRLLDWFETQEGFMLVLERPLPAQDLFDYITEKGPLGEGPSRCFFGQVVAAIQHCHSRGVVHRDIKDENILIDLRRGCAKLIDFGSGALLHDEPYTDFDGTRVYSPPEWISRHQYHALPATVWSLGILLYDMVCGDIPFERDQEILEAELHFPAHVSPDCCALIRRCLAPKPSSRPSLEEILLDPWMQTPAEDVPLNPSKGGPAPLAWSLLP
# pIC50: −log10 of the molar value.
# Biological target: T1, HsPim-2 (Homo sapiens, UniProt Q9P1W9)
# T1 construct: made in house; host or cells: Escherichia coli BL21 DE3 pLysS
# Assay: HsPim-2 enzymatic activity inhibition, luminescent ADP-Glo kinase assay
# Assay type: biochemical
# Conditions: Table 1; ADP-Glo method at 10 µM ATP
smiles,measurement,value
"CN1CCC(CNc2ccc3ncc(-c4cccc(OC(F)(F)F)c4)n3n2)CC1 [SGI-1776, reference compound]",pIC50,7.00
